{
  "source": "patent US20140377189A1",
  "about": "“PULMONARY ADMINISTRATION OF ROTIGOTINE” (MAP Pharmaceuticals, Inc., priority 2013, published 2014)",
  "test": "In situ rotigotine salt screening (precipitate formation in ethanol/HFA 227 solution formulation)",
  "format": "physicochemical",
  "conditions": "1 mg/mL rotigotine free base with acid, 10% (w/w) ethanol in HFA 227; immediately upon preparation",
  "experimental": "Rotigotine, bulk drug substance, was purchased from Chemagis (Perrigo API). A stock solution of rotigotine was prepared by dissolving rotigotine particles in ethanol at 10 mg/mL. With 1.5 mL rotigotine stock solution added to formulation bottles, each formulation bottle contained 15 mg rotigotine. For preparation of acid stock solutions, it was assumed that complete reaction or ion-pairing between rotigotine and acid. Based on the molecular weight and number of anions of each acid as listed in Table 1, acids stock solutions were prepared by dissolving the required amount in ethanol.\nEach formulation bottle was filed with 1.5 mL of rotigotine stock solution and 1.0 ml, of acid stock solution. The formulation bottles (PET bottles) were then sealed with continuous valves and vortexed for 30 seconds to mix the solution well. Finally, 17.6 g of 1,1,1,2,3,3,3-heptafluoropropane (HFA227 (Mexichem)) to make a final volume of 15 mL of rotigotine formulation. All the bottles were hand shaken for 10 seconds.\nAll in situ salt screening samples were made as 1 mg/mL of rotigtine free base in 10% (w/w) ethanol in HFA 227. Acids corresponding to the salt forms in Table 1 were added according to the molar ratio with rotigotine for complete reaction. As 1 mg/mL was the minimal required dose at the time of experiment, all formulations were tested at this level to screen out non-solution salt formulations. […]",
  "data": [
    {"substance": "Succinate", "values": [
      {"measurement": "Observation Immediate", "value": "white precipitate"}
    ]}
  ]
}
